Among the data in PMC13355314, “Charged molecular glue discovery enabled by targeted degron display” (Nature Chemical Biology, 2026) are Kd values, retold here.

Chains of the proteins cited; added tags and fusions are not shown. Lines headed by an entry give the natural chain unless they say otherwise; changes in a name come on top.
UniProt P62699: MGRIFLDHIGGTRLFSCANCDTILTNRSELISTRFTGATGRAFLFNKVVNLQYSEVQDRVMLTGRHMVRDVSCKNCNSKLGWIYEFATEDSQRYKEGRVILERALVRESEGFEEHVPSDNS

In the assay the target is BRD4BD1 / YPEL5–WDR26 (Homo sapiens, UniProt O60885+P62699). Put plainly: Octet BLI, degrader-bound BRD4BD1 binding to immobilized YPEL5–WDR26. To be noted: BRD4BD1 titrated at 5 μM degrader. (In BLI a coated tip is dipped into the sample, and binding shifts an interference pattern.)

In turn, `Cc1sc2c(c1C)C(c1ccc(NC(=O)c3cc(Cl)c(S(=O)O)c(Cl)c3)cc1)=N[C@@H](CC(=O)OC(C)(C)C)c1nnc(C)n1-2` [ZZ2-SO2H, 4-((4-((S)-6-(2-(tert-butoxy)-2-oxoethyl)-2,3,9-trimethyl-6H-thieno[3,2-f][1,2,4]triazolo[4,3-a][1,4]diazepin-4-yl)phenyl)carbamoyl)-2,6-dichlorobenzenesulfinic acid] yielded a Kd of 3.24 ± 0.15 nM.

For orientation: Kd means the equilibrium constant for the complex coming apart. Read a high Kd as a looser complex.
